# Reference: PubChem BioAssay AID652126 (The Scripps Research Institute Molecular Screening Center, 2013)
# The entries are a selection whose mix differs from that of the whole data set. Active and inactive are the calls of the source.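 Rule for the calls: active = activation above the mean over all tested compounds plus 3 SD (cut at about 0.9% in these data); inactive = the rest.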
# System: Nuclear hormone receptor DAF-12 (Strongyloides stercoralis)
# Experiment: S. stercoralis DAF-12 nuclear receptor activators, primary screen, cell-based, luminescence, HEK293, GRIP1 co-expression, lit1-tk-luc (AID 652126);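 note: 0% = DMSO-only wells and 100% = 3 µM delta7-dafachronic acid wells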
# Conditions: HEK293 ssDAF-12/GRIP1 lit1-tk-luc reporter, at 6.8 µM, stronger effect = higher value, % of 3 µM dafachronic acid response
row,Compound,activation
1,Nc1ccccc1[As](=O)(O)c1ccccc1,inactive: -0.93%
2,CCCOP(=S)(Nc1nc(N)cc(=O)[nH]1)OCCC,inactive: -0.85%
3,Nc1cccc2c([As](=O)(O)O)cccc12,inactive: -0.76%
4,Cc1ccc(NCCc2c([N+](=O)[O-])cc([N+](=O)[O-])cc2[N+](=O)[O-])cc1,inactive: -0.53%
5,CCOP(=O)(Nc1cccc2ccccc12)OCC,inactive: -0.86%
6,COc1cc(C2NCCC3(OCCO3)C2(C)C)cc(OC)c1OC (stereo not given),inactive: -1.42%
7,CS(=O)(=O)c1ccc(Cl)c(NC(=O)COC(=O)C(O)(c2ccccc2)c2ccccc2)c1,inactive: -0.96%
8,COc1cc(C(=O)NCC2(N3CCOCC3)CCCCC2)cc(Cl)c1OC(C)C,inactive: -0.84%
9,O=[As](O)(O)c1cccnc1,inactive: -1.27%
10,O=C(OC1CN2CCC1CC2)c1ccc(Cl)cc1 (stereo not given),inactive: -1.06%
11,O=[As](O)(c1cccc(O)c1)c1cccc(O)c1,inactive: -1.55%
12,Cc1cccc(OCC(=O)OC2CN3CCC2CC3)c1 (stereo not given),inactive: -1.19%
13,COc1ccccc1CNC(=O)COC(=O)C(O)(c1ccccc1)c1ccccc1,inactive: -0.87%
14,CC1(CBr)Cn2c(nc3ccccc3c2=O)S1 (stereo not given),inactive: -1.59%
15,CN(C(=O)Cc1ccc(Cl)c(Cl)c1)C1CCCC[C@@H]1N1CCCC1 (stereo not given in full),inactive: -0.55%
16,CN(C(=O)Cc1ccc(Cl)c(Cl)c1)[C@@H]1CCCC[C@H]1N1CCCC1,inactive: -0.53%
17,CC(C)/C=N\N=C(\N)N[N+](=O)[O-],inactive: -0.38%
18,CN(CCCl)Cc1cc(Cl)c(NC2=NCCN2)c(Cl)c1,inactive: -1.12%
19,CCOP(=O)(Nc1ccc(C)cn1)OCC,inactive: -1.54%
20,CCOP(=O)(NC(=NC(C)c1ccccc1)NC(C)c1ccccc1)OCC (stereo not given),inactive: -0.92%
21,CCC1=CC2Cc3nc4ccc(Cl)cc4c(N)c3C(C1)C2 (stereo not given),inactive: -1.36%
22,O=P1(Nc2ccccn2)COc2ccccc2OC1,inactive: -0.98%
23,CC(C)(C)C(=O)NC(Sc1ncccn1)C(Cl)(Cl)Cl (stereo not given),inactive: -0.29%
24,Clc1n[nH]nc1-c1nn[nH][15n]1,inactive: -1.56%
25,O=P1(N(CCCl)CCCl)NCCC(C(F)(F)F)O1 (stereo not given),inactive: -1.57%

row,Compound,activation
1,O=P1(Nc2ncccn2)COc2ccccc2OC1,inactive: -1.01%
2,Cc1ccc(S(=O)(=O)N(CCCN)CCCc2c(C)nc(N)[nH]c2=O)cc1,inactive: -0.27%
3,NS(=O)(=O)c1cccc(NC(=O)COC(=O)C(O)(c2ccccc2)c2ccccc2)c1,inactive: -1.88%
4,O=P1(Nc2ccc(Br)cn2)COc2ccccc2OC1,inactive: -1.3%
5,O=[As](O)(c1cccs1)c1cccs1,inactive: -1.04%
6,Cc1ccc(OCC(=O)OC2CN3CCC2CC3)cc1 (stereo not given),inactive: -1.2%
7,Nc1cccc([As](=O)(O)c2ccccc2)c1,inactive: -1.23%
8,Cc1ccc(C(=O)OC2CN3CCC2CC3)cc1 (stereo not given),inactive: -1.32%
9,CC1CCC(C(C)C)C(OP(=O)(Nc2ccccn2)c2ccccc2)C1 (stereo not given),inactive: -1.3%
10,Cc1nn(-c2ccccc2)c2c1P(=O)(N1CCOCC1)N(C)C(c1ccccc1)=N2 (stereo not given),inactive: -1.36%
11,CCCC1OP(=O)(Nc2ccccc2)OCC1CC (stereo not given),inactive: -1.08%
12,O=C(/C=C/c1ccccc1)OC1CN2CCC1CC2 (stereo not given),inactive: -1.13%
13,CN(C)C1(CNC(=O)c2ccc(S(C)(=O)=O)cc2)CCCCC1,inactive: -1.43%
14,O=[N+]([O-])c1ncn(CCn2cnc([N+](=O)[O-])n2)n1,inactive: -1.57%
15,CC(=O)NC(SC(=S)N(C)C)C(Cl)(Cl)Cl (stereo not given),inactive: -1.38%
16,O=[As](O)(c1ccccc1)c1ccc(O)cc1,inactive: -1.7%
17,Nc1ccc([As](=O)(O)c2ccc([N+](=O)[O-])cc2)cc1,inactive: -1.64%
18,C(Cc1nn[nH]n1)Cc1nn[nH]n1,inactive: -1.16%
19,C/C(N)=N\P(=O)(OCc1ccccc1)OCc1ccccc1,inactive: -0.47%
20,O=C(OC1CN2CCC1CC2)c1cccc(Cl)c1 (stereo not given),inactive: -1.39%
21,Nc1ccc(CCCCOc2ccccc2)cc1,inactive: -0.58%
22,COc1ccc(N)c([N+](=O)[O-])c1[N+](=O)[O-],inactive: -1.26%
23,CN(C)C1(CNC(=O)c2ccc(Cl)c(S(N)(=O)=O)c2)CCCCC1,inactive: -1.13%
24,O=P(Nc1ccccn1)(c1ccc(Br)cc1)c1ccc(Br)cc1,inactive: -1.38%
25,C[C@H]1OP(=O)(Oc2ccccc2)[C@H](O)[C@H](O)[C@H]1N=[N+]=[N-] (stereo not given in full),inactive: -1.24%
